Reference: PubChem BioAssay AID686940 (The Scripps Research Institute Molecular Screening Center, 2013)
Only a part is listed here, and it is no random draw. Activity calls are given as the source filed them.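 How the source made its calls: active means inhibition above a per-plate cutoff, mean inhibition of test wells between control levels plus 3 SD (cut at about 38% in these data); inactive means the rest.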

Protein sequences, listed by entry. Tags and fused reporters are not part of them. Lines headed by an entry give the natural chain unless they say otherwise; changes in a name come on top.
UniProt P24468: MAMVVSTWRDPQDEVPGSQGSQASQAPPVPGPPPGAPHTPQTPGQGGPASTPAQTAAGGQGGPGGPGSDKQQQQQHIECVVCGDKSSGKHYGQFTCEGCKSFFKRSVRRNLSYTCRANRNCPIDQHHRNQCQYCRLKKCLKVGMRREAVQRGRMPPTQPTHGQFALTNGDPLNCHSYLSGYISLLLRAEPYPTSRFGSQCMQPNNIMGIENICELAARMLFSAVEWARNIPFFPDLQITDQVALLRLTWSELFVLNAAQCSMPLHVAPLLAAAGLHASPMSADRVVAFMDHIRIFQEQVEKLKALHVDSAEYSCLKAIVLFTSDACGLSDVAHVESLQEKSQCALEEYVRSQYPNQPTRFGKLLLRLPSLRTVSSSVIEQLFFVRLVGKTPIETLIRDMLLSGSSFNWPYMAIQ

biological target: COUP transcription factor 2 (Homo sapiens) (UniProt P24468); assay: NR2F2 transcriptional activity inhibitors, primary screen, cell-based, luciferase reporter, HEK293T, luminescence (AID 686940); settings: HEK293T NGFI-A luciferase reporter, at 8.6 µM, hits give high values;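 further: cells cotransfected with COUP-TFII expression vector driving the NGFI-A reporter; 0% = median of COUP-TF2 test wells and 100% = reporter-only cells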

SMILES	inhibition
CCCOP(=S)(Nc1nc(N)cc(=O)[nH]1)OCCC	inactive: -1.74%
CCOP(=O)(Nc1cccc2ccccc12)OCC	inactive: -8.3%
COc1cc(C2NCCC3(OCCO3)C2(C)C)cc(OC)c1OC (stereo unspecified)	inactive: 6.24%
O=C(OC1CN2CCC1CC2)c1ccc(Cl)cc1 (stereo unspecified)	inactive: 1.34%
CS(=O)(=O)c1ccc(Cl)c(NC(=O)COC(=O)C(O)(c2ccccc2)c2ccccc2)c1	inactive: -0.65%
COc1cc(C(=O)NCC2(N3CCOCC3)CCCCC2)cc(Cl)c1OC(C)C	inactive: 22.6%
O=[As](O)(O)c1cccnc1	inactive: 2.6%
O=[As](O)(c1cccc(O)c1)c1cccc(O)c1	inactive: 0.57%
Cc1cccc(OCC(=O)OC2CN3CCC2CC3)c1 (stereo unspecified)	inactive: 4.52%
NC(=O)Nc1ccc([As](=O)(O)O)cc1	inactive: -0.55%
CCOP1(=S)c2c(C)nn(CCC#N)c2N=C(c2ccc(F)cc2)N1C (stereo unspecified)	inactive: 12.7%
CN(C(=O)Cc1ccccc1)[C@@H]1CC[C@]2(CCCO2)C[C@H]1N1CCCC1	inactive: 2.45%
N#CCCN(C(=O)COC(=O)C(O)(c1ccccc1)c1ccccc1)c1ccc(F)cc1	inactive: 3.92%
CN(C(=O)Cc1ccc(Cl)c(Cl)c1)[C@H]1CC[C@@]2(CCCO2)C[C@@H]1N1CCCC1	inactive: 13.6%
CN(C)C(=O)c1cc([N+](=O)[O-])cc2c1-c1c(cc([N+](=O)[O-])cc1[N+](=O)[O-])C2=O	inactive: 0.07%
O=[N+]([O-])c1ccc2c(c1)nnn2O	inactive: 3.28%
O=P(Nc1nccs1)(Oc1ccccc1)Oc1ccccc1	inactive: 10.8%
CCOP1(=S)c2c(C)nn(CCC#N)c2N=C(c2ccccc2F)N1C (stereo unspecified)	inactive: 14.3%
Nc1ccccc1[As](=O)(O)c1ccccc1	inactive: -17.3%
O=C(O)COc1ccc([As](=O)(O)O)cc1[N+](=O)[O-]	inactive: 29.6%
Cc1ccc(S(=O)(=O)N(CCCN)CCCc2c(C)nc(N)[nH]c2=O)cc1	inactive: -1.21%
O=P1(Nc2ncccn2)COc2ccccc2OC1	inactive: 11.5%
Nc1cccc([As](=O)(O)c2ccccc2)c1	inactive: -13.9%

SMILES	inhibition
O=P1(Nc2ccc(Br)cn2)COc2ccccc2OC1	inactive: 1.09%
NS(=O)(=O)c1cccc(NC(=O)COC(=O)C(O)(c2ccccc2)c2ccccc2)c1	inactive: -9.42%
O=[As](O)(c1cccs1)c1cccs1	inactive: 0.29%
Cc1ccc(OCC(=O)OC2CN3CCC2CC3)cc1 (stereo unspecified)	inactive: -3.91%
CC1CCC(C(C)C)C(OP(=O)(Nc2ccccn2)c2ccccc2)C1 (stereo unspecified)	inactive: -1.8%
Cc1ccc(C(=O)OC2CN3CCC2CC3)cc1 (stereo unspecified)	inactive: 5.21%
Cc1nn(-c2ccccc2)c2c1P(=O)(N1CCOCC1)N(C)C(c1ccccc1)=N2 (stereo unspecified)	inactive: -3.72%
CN(C)C1(CNC(=O)c2ccc(S(C)(=O)=O)cc2)CCCCC1	inactive: -8.44%
CCCC1OP(=O)(Nc2ccccc2)OCC1CC (stereo unspecified)	inactive: 0.83%
O=C(/C=C/c1ccccc1)OC1CN2CCC1CC2 (stereo unspecified)	inactive: -13%
COc1ccccc1CNC(=O)COC(=O)C(O)(c1ccccc1)c1ccccc1	inactive: 9.71%
CN(C(=O)Cc1ccc(Cl)c(Cl)c1)C1CCCC[C@@H]1N1CCCC1 (stereo partly specified)	inactive: -5.65%
CC(C)/C=N\N=C(\N)N[N+](=O)[O-]	inactive: -2.82%
CN(C(=O)Cc1ccc(Cl)c(Cl)c1)[C@@H]1CCCC[C@H]1N1CCCC1	inactive: -8.17%
CC1(CBr)Cn2c(nc3ccccc3c2=O)S1 (stereo unspecified)	inactive: 13.1%
CCOP(=O)(NC(=NC(C)c1ccccc1)NC(C)c1ccccc1)OCC (stereo unspecified)	inactive: -5.11%
O=P1(Nc2ccccn2)COc2ccccc2OC1	inactive: 9.99%
CCC1=CC2Cc3nc4ccc(Cl)cc4c(N)c3C(C1)C2 (stereo unspecified)	inactive: 17.9%
CN(CCCl)Cc1cc(Cl)c(NC2=NCCN2)c(Cl)c1	inactive: 4.96%
CCOP(=O)(Nc1ccc(C)cn1)OCC	inactive: 3.91%
CC(C)(C)C(=O)NC(Sc1ncccn1)C(Cl)(Cl)Cl (stereo unspecified)	inactive: 9.15%
O=P1(N(CCCl)CCCl)NCCC(C(F)(F)F)O1 (stereo unspecified)	inactive: -8.42%
Clc1n[nH]nc1-c1nn[nH][15n]1	inactive: 0.23%
